Sequences of proteins named here, by UniProt entry; tags and fusion partners are left off. A change or cut given only in a name is not applied to a line headed by its entry.
UniProt Q12809: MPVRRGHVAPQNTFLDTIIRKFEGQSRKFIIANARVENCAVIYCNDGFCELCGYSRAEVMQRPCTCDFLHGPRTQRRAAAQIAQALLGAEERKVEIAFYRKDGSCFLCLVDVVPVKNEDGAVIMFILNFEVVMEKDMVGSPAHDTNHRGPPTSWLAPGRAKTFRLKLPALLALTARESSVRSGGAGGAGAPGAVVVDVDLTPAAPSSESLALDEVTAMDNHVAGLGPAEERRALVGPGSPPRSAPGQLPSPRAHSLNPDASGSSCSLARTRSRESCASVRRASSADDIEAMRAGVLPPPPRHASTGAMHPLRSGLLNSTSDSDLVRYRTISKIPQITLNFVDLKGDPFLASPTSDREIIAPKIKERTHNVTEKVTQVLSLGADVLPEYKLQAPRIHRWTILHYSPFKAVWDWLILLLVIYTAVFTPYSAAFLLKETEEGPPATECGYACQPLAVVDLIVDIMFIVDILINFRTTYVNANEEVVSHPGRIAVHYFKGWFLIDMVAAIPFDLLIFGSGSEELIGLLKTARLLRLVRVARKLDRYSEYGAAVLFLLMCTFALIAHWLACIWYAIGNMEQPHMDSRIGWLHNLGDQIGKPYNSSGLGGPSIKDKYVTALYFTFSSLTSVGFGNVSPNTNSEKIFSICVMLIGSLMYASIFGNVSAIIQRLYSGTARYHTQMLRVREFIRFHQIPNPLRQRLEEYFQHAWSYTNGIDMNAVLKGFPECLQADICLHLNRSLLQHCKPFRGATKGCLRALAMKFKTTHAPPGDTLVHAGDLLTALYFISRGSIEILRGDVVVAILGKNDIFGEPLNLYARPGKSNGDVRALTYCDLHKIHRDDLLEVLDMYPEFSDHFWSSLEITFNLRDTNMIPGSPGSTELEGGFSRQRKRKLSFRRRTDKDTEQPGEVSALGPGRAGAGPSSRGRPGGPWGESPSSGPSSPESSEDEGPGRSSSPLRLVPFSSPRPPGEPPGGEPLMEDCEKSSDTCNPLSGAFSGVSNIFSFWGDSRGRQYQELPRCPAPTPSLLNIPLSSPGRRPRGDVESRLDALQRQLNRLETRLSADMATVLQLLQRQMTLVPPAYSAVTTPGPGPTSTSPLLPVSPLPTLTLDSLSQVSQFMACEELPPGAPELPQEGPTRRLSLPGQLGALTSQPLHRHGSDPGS

In BindingDB's records for doi:10.1016/j.vascn.2014.07.002 (University of Oxford, 2014):

Target: Potassium voltage-gated channel subfamily H member 2 (Homo sapiens, UniProt Q12809)
Experiment: Inhibition of rapid delayed inward rectifying potassium current (IKr) measured using manual patch clamp assay

## C[C@@H](O)[C@H]1C(=O)N2C(C(=O)O)=C(S[C@@H]3CN[C@H](CNS(N)(=O)=O)C3)[C@H](C)[C@H]12 [Doribax]
  IC50: 5.01 mM
